Values of other authors in US20260355331A1, “CEREBLON DEGRADER CONJUGATES, AND USES THEREOF” (GENENTECH, INC., priority 2022, published 2026).

Assays:
[1] = tested on: Fo5 mammary tumor (HER2); conditions: Fo5 mmtv transgenic mouse allograft; cited from earlier work
[2] = target: extracellular domain of HER2; conditions: cell-based assay; cited from earlier work

Question: What does the source list for “Trastuzumab: recombinant DNA-derived, IgG1 kappa, monoclonal antibody that is a humanized version of a murine anti-HER2 antibody (4D5)”?
Answer: response of Fo5 tumors to therapy (in words) [1]: does not respond to, or responds poorly to; Kd [2]: 5 nM
